In patent US4137310A, “Method for the control of cattle grubs employing a phenylene bis[imino(thio]carbonyl)diphosphor(thio)-amidic acid ester” (dated 1979):

How the values were obtained:
[1] = system: Cuterebra sp. larvae; assay: Efficacy for the control of Cuterebra sp. in infested mice, oral treatment; settings: female mice, treated 48 hours after infestation, examined 4 days posttreatment, dosage that kills 50% of the larvae, log-probit
[2] = system: Cuterebra sp. larvae; assay: Efficacy for the control of Cuterebra sp. in infested mice, dermal (dip) treatment; settings: dermal dip in emulsion, male mice, 48 hours after infestation, examined 4 days posttreatment; concentration that kills 50% of the larvae, log-probit

SMILES	Oral (mice) Dosage LD50 [1] [mg/kg]	Dermal (mice) Dosage LC50 [2] [%]
CCOP(=O)(NC(=S)Nc1ccc(Cl)cc1NC(=S)NP(=O)(OCC)OCC)OCC	4.86	0.031
CCOP(=O)(NC(=S)Nc1ccccc1NC(=S)NP(=O)(OCC)OCC)OCC	14.1	0.06
CCOP(=O)(NC(=S)Nc1ccc(NC(=S)NP(=O)(OCC)OCC)c(Cl)c1)OCC	58.01	0.18
